Data from ChEMBL document CHEMBL1141418 (J Med Chem, 2007).

By UniProt entry, the sequences of proteins in these tests, tags left out.
UniProt Q00788, whole entry: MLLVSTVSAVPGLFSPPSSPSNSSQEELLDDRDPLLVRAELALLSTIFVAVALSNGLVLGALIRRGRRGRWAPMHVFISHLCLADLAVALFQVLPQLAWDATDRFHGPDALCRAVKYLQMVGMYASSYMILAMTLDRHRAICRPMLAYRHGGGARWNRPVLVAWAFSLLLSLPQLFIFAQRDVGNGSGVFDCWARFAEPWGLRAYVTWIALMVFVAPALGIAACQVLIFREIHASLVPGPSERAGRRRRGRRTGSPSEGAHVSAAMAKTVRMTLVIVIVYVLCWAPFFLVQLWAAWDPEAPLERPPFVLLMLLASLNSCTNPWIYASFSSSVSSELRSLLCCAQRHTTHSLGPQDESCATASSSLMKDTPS

Biological target: Vasopressin V2 receptor (Rattus norvegicus, UniProt Q00788)
Experiment: Displacement of [3H]AVP from vasopressin V2 receptor in rat kidney membranes
Format: cell membranes, Membrane

NC(=O)CC[C@@H]1NC(=O)[C@H](Cc2ccccc2)NC(=O)[C@H](Cc2ccc(O)cc2)NC(=O)[C@@H](N)CSSC[C@@H](C(=O)N2CCC[C@H]2C(=O)N[C@@H](CCCN=C(N)N)C(=O)NCC(N)=O)NC(=O)[C@H](CC(N)=O)NC1=O [VASOPRESSIN]
Ki: 450 pM (antagonist)
